Chains of the proteins cited; added tags and fusions are not shown. Residues count along the entry.
UniProt P08069, 31-1367 limits assumed: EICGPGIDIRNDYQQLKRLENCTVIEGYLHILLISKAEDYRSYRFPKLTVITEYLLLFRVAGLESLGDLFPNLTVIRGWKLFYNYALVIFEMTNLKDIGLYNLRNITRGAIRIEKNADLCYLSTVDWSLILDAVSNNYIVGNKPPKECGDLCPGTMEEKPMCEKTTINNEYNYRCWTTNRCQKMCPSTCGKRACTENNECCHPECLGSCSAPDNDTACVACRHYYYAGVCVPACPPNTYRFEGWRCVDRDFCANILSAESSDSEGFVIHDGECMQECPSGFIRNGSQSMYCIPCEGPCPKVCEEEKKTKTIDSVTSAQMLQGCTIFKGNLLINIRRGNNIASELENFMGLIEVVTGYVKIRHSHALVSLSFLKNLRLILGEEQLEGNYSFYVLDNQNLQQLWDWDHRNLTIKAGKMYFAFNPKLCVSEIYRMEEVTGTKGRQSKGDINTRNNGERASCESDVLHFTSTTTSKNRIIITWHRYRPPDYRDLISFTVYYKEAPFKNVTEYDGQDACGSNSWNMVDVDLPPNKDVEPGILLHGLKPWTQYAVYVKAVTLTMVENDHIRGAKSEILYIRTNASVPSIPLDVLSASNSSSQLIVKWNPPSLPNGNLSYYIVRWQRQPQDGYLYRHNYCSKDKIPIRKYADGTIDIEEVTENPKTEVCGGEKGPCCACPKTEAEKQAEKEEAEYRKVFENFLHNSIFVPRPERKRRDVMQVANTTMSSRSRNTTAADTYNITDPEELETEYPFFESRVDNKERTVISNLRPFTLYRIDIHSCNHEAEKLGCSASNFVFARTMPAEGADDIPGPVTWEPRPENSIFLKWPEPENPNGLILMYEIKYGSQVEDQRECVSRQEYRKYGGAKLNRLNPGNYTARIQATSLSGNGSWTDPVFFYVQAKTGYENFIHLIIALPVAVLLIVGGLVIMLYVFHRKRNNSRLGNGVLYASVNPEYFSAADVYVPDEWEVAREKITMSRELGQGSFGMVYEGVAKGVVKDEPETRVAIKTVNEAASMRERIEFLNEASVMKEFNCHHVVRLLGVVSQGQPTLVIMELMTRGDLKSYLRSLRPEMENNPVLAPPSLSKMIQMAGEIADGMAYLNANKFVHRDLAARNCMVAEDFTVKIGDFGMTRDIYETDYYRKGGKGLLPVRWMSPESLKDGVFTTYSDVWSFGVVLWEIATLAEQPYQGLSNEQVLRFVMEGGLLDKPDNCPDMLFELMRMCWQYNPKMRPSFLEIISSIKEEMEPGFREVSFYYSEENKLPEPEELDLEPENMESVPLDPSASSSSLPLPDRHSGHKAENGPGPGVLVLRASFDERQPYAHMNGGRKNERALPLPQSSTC

According to patent US20110039779A1 (published 2011):

Target: T1, human insulin-like growth factor-1 receptor (HIGF-1R) (human, UniProt P08069 31-1367)
T1 construct: Detergent-solubilised receptor purified on WGA-agarose; also called HIGFIR
Assay: 125I-IGF-1 displacement, SPA-assay
Excerpt: In certain cases, a scintillation proximity assay (SPA assay) was used to determine IGF-1R affinity.

Binder	Kd [µM]
EGVDEVRAWLWCQISGLGCESGFRDNSFYEWFERQLGEKK [F189]	0.052
ESFYSCLESLVNGPAEKSRGQWDGCRE [F215]	0.33
ESFYSCLASLVAGTPWPKGGSWERCREE [F230]	0.046
SFYSCLESLVAGPAEKSRGQWEGCR [F258]	0.22
SFYSCLESLVNGPAEKSRGQWDGCR [F249]	0.19
SFYSCLESLVTGPAEKSEGQWEGCR (N-terminal acetyl (Ac-)) [F367]	2.2
SFYSCLESLVQGPAEKSRGQWEGCRK [F293]	0.089
SFYSCLESLVNGPAEKSRGQWDGCRK (also called RP33/F250) [F250]	0.078
SFYSCLESLVAGPAEKSRGQWEGCRK [F259]	0.084
SFYSCLESLVNAPAEKSRGQWEGCRK [F296]	0.057
SFYSCLESLVNAPAEKSRGQWDACRK [F298]	0.064
EGSLDESFYDWFERQLGGYSWLRDVLMEKQAQLKREGSVGRQE (the two parts are conjugated by POX2 (Pox = 8-amino-3,6-dioxaoctanoic acid), 111 conjugated by POX) [F255]	13
RQWDCRGRPCGDAESFYEWFDQQRS [F264]	0.044
RVSDCRGRPCGDAANFYEWFVQQGS [F266]	0.22
ETGRECWGRPCGEADSFYDWFVQQGSE [F267]	1.1
EIQRDCQGRPCGDAANFYDWFVQQDSE [F268]	0.37
EVDRDCQARPCGDAANFYDWFGQQGTE [F269]	0.89
RGNVGGGSLDESFYEWFERQLGR [F271]	1.7
TLNPRGPWEGSRGSMDDSFYRWFERQLE [F272]	1.5
TGAPQPNRGPLDRCRGSLDECFYGWFERQLL [F273]	7.6
TFYSGPVSLLTGTPRTNRSAWERGRGSLDDSFYDWFERQLSR [F274]	1.4

Binder	Kd [µM]
GSGGYASRDESFYEWFERQLA [F276]	1.6
GSLDESFYDWFERQLGADTKSPRWGSGTREHQGARGGAPGR [F285]	1.7
GSLDESFYDWFERQLGAVVGRDGGPITRDVGGDGRRGYNV [F286]	2.3
VGRASGFPENFYDWFGRQLSLQSGEQRR (N-terminal acetyl (Ac-)) [F287]	7.6
VGCRASGFPENFYDWFGRQLSLQSGCEQR [F290]	6.7
TFYSCLASLLTGTPQPNRGPWERCRKK [F291]	0.069
SFYSCLESLVTGPAKRSRGQWEGCRR (N-terminal acetyl (Ac-)) [F307]	0.046
SFYSCLESLVKRPTERSRGQWVGCR [F320]	0.11
SFYSCLESLVSGPAEKSHRRWEACR [F321]	0.11
F322 (the two parts are conjugated by (Pox)2 (Pox = 8-amino-3,6-dioxaoctanoic acid), 141 conjugated by POX) peptide: SFYSCLESLVNGPAEKSRGQWDGCRSFYSWPGSSQLTVKPEISPDLRFGGR	1.2
SFYSCLESLVQGPAEQSQGQWEGCR [F338]	11
SFYSCLESLVQGPAESSDGQWEGCR [F339]	13
VQDDCRGRPCGDDADSFYEWFDQQAS [F342]	0.44
VQDDCRGRPCGDADSFYEWFDQQAGYGSSSRRAPQT [F364]	0.047
EGYSMCDLLARAQIVELDLCERGVQVE [F371]	2.9
EGRSMCHLLARAQIVELDLCERGVQVE [F372]	6.8
EGSSMCHLLARAQIVDLTLCEMDVLED [F374]	17
SFYSCLASLVTGTPQACRGPWERGRGYLS [F377]	0.12
TFYSCLASLLDGTTQPHRGSWERCRGGLS [F378]	0.29
SFYSSMACLLNGTPLPDRGPRERWRACLT [F379]	17
SFYSCLASLLTGTPDENRGGWERFRCLDQAGDGLWGEPSGRGLVS [F388]	2.1

Binder	Kd [µM]
GSPQPERGLRERSRWLDQERAWLWCEISGRGCLS [F389]	8.9
QFYGCLLDLSLGVPSFGWKKKCITA [F392]	17
SFYSCLASLLTATSQPNRGPGDRCERSGGGWLS [F394]	0.39
NFYGCLLDLSLGVPSFGWRRRCITA [F408]	16
QFYGCLLKLSLGVPSFGWRRRCITA (N-terminal acetyl (Ac-)) [F419]	0.22
QFYGCLLDLSLKVPSFGWRRRCITA (N-terminal acetyl (Ac-)) [F421]	11
EGRVDDAFYEWFERQLGEEEDDQNWEGYNWFNEQLGK [F411]	0.29
ELCQSWGVRIGWLAGLCPEEGRVDDAFYEWFERQLGE [F412]	17
EEDDQNWEGYNWFNEQLGKEGRVDDAFYEWFERQLGE [F413]	0.36
SFYSCLASLVTGIPRSNSGTQVFCR [F422]	0.22
TFYSCLASLLTGPREQNRGAWERCR [F423]	0.25
GNGDGMFYQLLSLLVGRDMH [F433]	18
AWRYPEDDLEDWLARGRGYG [F435]	13
GEHFCQLLISLCGDDCGPVNCGGGS [F436]	22
NFHDCLLDLSRGGPSSDWRRRCITA [F439]	21
NFYDCLQDLSLGDPSVDWRRRCITA [F440]	21
SFYDCLLDLSIGGPSSDWRRRCITA [F441]	11
TFYSCLASLLTGPREQNRGAWERCRR [F142]	0.035
DYKDCWARPCGDAANFYDWFVQQASKK [F178]	0.0053
DDDKGSLDESFYDWFERQLGKKWLDQERAWLWCEISGRGCLS (the two parts are conjugated by POX2 (Pox = 8-amino-3,6-dioxaoctanoic acid; printed 'PDX2'), 80 conjugated by POX) [F184]	2.8
